Values quoted from earlier work as cited in US6562757B1, “Plant-protection treatment of plants and compositions which can be used for this purpose” (Cerexagri S.A., priority 1999, dated 2003).

Settings: pH 7

amount of soluble aqueous copper (Cu2+(aq)) released: 1 to 10 mg/L
Substance: cuprous oxide
